Reference: paper PMC8886048, “The Non-phosphorylating Glyceraldehyde-3-Phosphate Dehydrogenase GapN Is a Potential New Drug Target in Streptococcus pyogenes” (Frontiers in Microbiology, 2022)

System: NADP
Assay: purified protein, by the assay type
Settings: other: Strep-tagged GapN; ± standard error printed (0.05 NADP; 0.19 DL-G3P)

In the case of “S. pyogenes GapN (Streptococcus pyogenes serotype M1)”, the Km is reported as 360 µM.
